Measurements as given in patent US9242970B2 (ACTELION PHARMACEUTICALS LTD., priority 2010, dated 2016).

Amino acid sequences for entries named in this document (tags omitted).
UniProt O43613, whole entry: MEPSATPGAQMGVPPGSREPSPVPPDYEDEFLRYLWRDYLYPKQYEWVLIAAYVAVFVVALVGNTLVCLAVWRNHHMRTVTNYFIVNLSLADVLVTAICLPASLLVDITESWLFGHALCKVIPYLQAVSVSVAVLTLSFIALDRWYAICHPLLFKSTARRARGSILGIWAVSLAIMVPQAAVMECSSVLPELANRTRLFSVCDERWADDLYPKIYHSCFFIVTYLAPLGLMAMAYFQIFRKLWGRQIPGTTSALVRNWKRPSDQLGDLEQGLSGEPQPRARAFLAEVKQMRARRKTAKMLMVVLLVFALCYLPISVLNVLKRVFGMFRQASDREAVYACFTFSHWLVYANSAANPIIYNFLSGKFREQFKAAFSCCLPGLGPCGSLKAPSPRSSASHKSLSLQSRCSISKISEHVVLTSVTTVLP
UniProt O43614, whole entry: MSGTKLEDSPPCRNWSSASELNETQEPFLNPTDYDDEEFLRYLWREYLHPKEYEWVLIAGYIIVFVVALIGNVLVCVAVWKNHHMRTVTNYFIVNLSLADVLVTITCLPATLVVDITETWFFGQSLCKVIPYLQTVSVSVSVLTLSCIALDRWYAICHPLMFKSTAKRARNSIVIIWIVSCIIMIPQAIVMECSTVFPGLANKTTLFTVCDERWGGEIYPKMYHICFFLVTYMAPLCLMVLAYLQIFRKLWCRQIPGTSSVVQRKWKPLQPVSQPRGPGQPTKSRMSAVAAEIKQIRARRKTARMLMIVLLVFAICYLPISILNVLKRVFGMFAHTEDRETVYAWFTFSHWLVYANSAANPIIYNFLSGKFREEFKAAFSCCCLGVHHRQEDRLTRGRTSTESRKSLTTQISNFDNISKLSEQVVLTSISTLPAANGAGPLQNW

What follows are molecules tested against human orexin-1 receptor (Homo sapiens (Human), UniProt O43613) (assay: In vitro assay: intracellular calcium measurements (FLIPR), antagonistic activity). Settings: CHO cells, 3 nM orexin-A, compound incubation 120 min; marked values are geometric means of n = 2-6; read-out: IC50 OX1.
Assay type: cell-based
Protocol: (§1) In Vitro Assay: Intracellular Calcium Measurements:
(§2) Chinese hamster ovary (CHO) cells expressing the human orexin-1 receptor and the human orexin-2 receptor, respectively, are grown in culture medium (Ham F-12 with L-Glutamine) containing 300 µg/ml G418, 100 U/ml penicillin, 100 µg/ml streptomycin and 10% heat inactivated fetal calf serum (FCS). The cells are seeded at 20,000 cells/well into 384-well black clear bottom sterile plates (Greiner). The seeded plates are incubated overnight at 37° C. in 5% CO2.
(§3) Fluorescence is measured for each well at 1 second intervals, and the height of each fluorescence peak is compared to the height of the fluorescence peak induced by 3 nM orexin-A with vehicle in place of antagonist. […] Optimized conditions were achieved by adjustment of pipetting speed and cell splitting regime. The calculated IC50 values may fluctuate depending on the daily cellular assay performance. Fluctuations of this kind are known to those skilled in the art.

Q: Which IC50 does the source give for `COc1cccc(OC)c1[C@@H]1C[C@H](F)C(=O)N1Cc1ccc2oc3ccccc3c2c1` (racemic) [Example 367, rac-(3S*,5S*)-1-(dibenzo[b,d]furan-2-ylmethyl)-5-(2,6-dimethoxyphenyl)-3-fluoropyrrolidin-2-one] here?
A: Its IC50 is 3 nM.

Q: With `COc1cccc(F)c1[C@@H]1C[C@H](F)C(=O)N1Cc1ccc2oc3ccccc3c2c1` (racemic) [Example 406, rac-(3S*,5S*)-1-(dibenzo[b,d]furan-2-ylmethyl)-3-fluoro-5-(2-fluoro-6-methoxyphenyl)pyrrolidin-2-one] as the molecule, how does the IC50 read?
A: Its IC50 is 81 nM.

Q: For `COc1cccc(F)c1[C@@H]1C[C@H](Cl)C(=O)N1Cc1ccc2oc3ccccc3c2c1` (racemic) [Example 408, rac-(3S*,5S*)-3-chloro-1-(dibenzo[b,d]furan-2-ylmethyl)-5-(2-fluoro-6-methoxyphenyl)pyrrolidin-2-one], which IC50 is on record?
A: The IC50 was 86 nM.

Same assay, conditions: CHO cells, 3 nM orexin-A, compound incubation time of 10 min; marked values are geometric means of n = 2-6; read-out: IC50 OX1

Q: `COc1cccc(OC)c1[C@@H]1C[C@H](O)C(=O)N1Cc1ccc(OC(F)(F)F)cc1` (racemic) [Example 253, rac-(3S*,5S*)-5-(2,6-dimethoxyphenyl)-3-hydroxy-1-(4-(trifluoromethoxy)benzyl)pyrrolidin-2-one] was tested. Which IC50 did it give?
A: The IC50 was 899 nM.

Q: Which IC50 does the source give for `COc1cccc(OC)c1[C@@H]1C[C@@H](F)C(=O)N1Cc1ccc(OC(F)(F)F)cc1` (racemic) [Example 255, rac-(3R*,5S*)-5-(2,6-dimethoxyphenyl)-3-fluoro-1-(4-(trifluoromethoxy)benzyl)pyrrolidin-2-one] here?
A: Its IC50 is 299 nM.

Q: `COc1cccc(OC)c1[C@@H]1C[C@@H](O)C(=O)N1Cc1ccc(OC(F)(F)F)cc1` (racemic) [Example 258, rac-(3R*,5S*)-5-(2,6-dimethoxyphenyl)-3-hydroxy-1-(4-(trifluoromethoxy)benzyl)pyrrolidin-2-one] was tested. Which IC50 did it give?
A: Its IC50 is 927 nM.

Q: For `COc1cccc(OC)c1[C@@H]1C[C@H](F)C(=O)N1Cc1ccc(OC(F)(F)F)cc1` (racemic) [Example 260, rac-(3S*,5S*)-5-(2,6-dimethoxyphenyl)-3-fluoro-1-(4-(trifluoromethoxy)benzyl)pyrrolidin-2-one], which IC50 is on record?
A: The IC50 was 75 nM.

The molecules below were run against human orexin-2 receptor (Homo sapiens (Human), UniProt O43614) in the same assay as above. Settings: CHO cells, 3 nM orexin-A, compound incubation 120 min; marked values are geometric means of n = 2-6; read-out: IC50 OX2.
Assay type: cell-based
Protocol: as §1, §2, §3

Q: With `O=C1[C@@H](Cl)C[C@@H](c2cccc3c2OCCO3)N1Cc1ccc(OC(F)(F)F)cc1` (racemic) [Example 307, rac-(3S*,5S*)-3-chloro-5-(2,3-dihydrobenzo[b][1,4]dioxin-5-yl)-1-(4-(trifluoromethoxy)benzyl)pyrrolidin-2-one] as the molecule, how does the IC50 read?
A: The IC50 was 397 nM.

Q: Which IC50 does the source give for `COc1cc(F)ccc1[C@@H]1C[C@@H](Cl)C(=O)N1Cc1ccc(OC(F)(F)F)cc1` (racemic) [Example 323, rac-(3R*,5S*)-3-chloro-5-(4-fluoro-2-methoxyphenyl)-1-(4-(trifluoromethoxy)benzyl)pyrrolidin-2-one] here?
A: The IC50 was 2150 nM.

Q: Which IC50 does the source give for `COc1cccc(OC)c1C1CCCC(=O)N1Cc1ccc2ccccc2n1` (stereo not shown) [Example 4, 6-(2,6-dimethoxyphenyl)-1-(quinolin-2-ylmethyl)piperidin-2-one] here?
A: The IC50 was 58 nM.
